The numbers were not newly measured in patent US6113907A, “Pharmaceutical grade St. John's Wort” (priority 1997, dated 2000), which cites them from elsewhere.

As usually defined, the IC50 is the point on the concentration scale where inhibition reaches its midpoint.

This data set deals with serotonin uptake. As to conditions: cited from earlier work.

Regarding `CN(C)CCCN1c2ccccc2CCc2ccc(Cl)cc21` [Clomipramine, clomipramine], the “serotonin uptake inhibition IC50” value (equivalent of 0.9 nM) was ~ 0.3 ng/ml. Moreover, the half-maximal inhibitory concentration (IC50) (read-out: serotonin uptake inhibition IC50) is 0.9 nM.
